Where two headings read alike, the source gives them in different places.
Experiments:
[1] = n = 7, mean (SEM)
Protocol: To each sample of participant plasma or urine, A. aerogenes sulfatase (2.5 µL; 10–20 units/mL), and E. coli glucuronidase (2.5 µL; ∼5,000–50,000 units/mL) were used to release the analytes from their sulfate and β-D-glucuronic acid esters (Phase II metabolites). For calibration and validation samples, aqueous glycerol (5 µL) was added to mimic the enzymatic hydrolysis. For all analyses, 1% ascorbic acid (10 µL) was added prior to sample work up to limit oxidation. Samples were incubated (37°C) for 20 min and placed on ice to halt enzymatic activity. […] The supernatant was filtered (0.22 µm spinfilter) at 10,000 g for 5 min at 4°C and used for analysis. To optimize peak shape during analysis, the concentration of organic solvent (sample filtrate) was adjusted to a 60:40 ratio with HPLC grade water for TT analysis and a 90:10 ratio with 1% aqueous formic acid for CQA analysis.
HPLC-MS/MS was performed at the Oregon Health & Science University’s (OHSU) Bioanalytical Shared Resource/Pharmacokinetics Core (Portland, OR, United States). […]
Sample preparation and analysis: Plasma and urine sample preparation and analyte quantification by LC-MS/MS were performed in duplicate for each time point and visit (Sections 2.2–2.4). […]

[2] = encapsulated ECa 233, healthy adults; ref Songvut et al., 2019; cited from earlier work
[3] = Analyte storage stability in human urine; conditions: low concentration

## Asiaticoside
[1]; single oral 2 g CAW (CAP)
  Total urinary excretion (12 hr): 20.68 (6.7) µg
[1]; single oral 4 g CAW (CAP)
  Total urinary excretion (12 hr): 18.6 (4.5) µg
[2]
  Tmax: 1 to 2 h
[3]; condition 1 long-term storage at −80°C
  Stability, percent of nominal concentration: 173%
[3]; condition 3 overnight storage at 4°C
  Stability, percent of nominal concentration: 91%

From article PMC10481538, “Bioanalytical method validation and application to a phase 1, double-blind, randomized pharmacokinetic trial of a standardized Centella asiatica (L.) Urban water extract product in healthy older adults” (Frontiers in Pharmacology, 2023)
